In PubChem BioAssay AID434955 (Southern Research Specialized Biocontainment Screening …, 2010):

Tested on: M. tuberculosis H37Rv growth with meropenem, percent inhibition
Assay: beta-lactam sensitization of Mtb H37Rv, H37Rv (AID 434955)

`CCCCCCCCCCCCCCCC[N+](C)(C)CCN(Cc1ccc(OC)cc1)c1ncccn1` was tested, and the IC90 was 3.09 µM.
